# Values of other authors, collected in patent US11492413B2, “Switchable antibody conjugate” (Temple University—Of The Commonwealth System of Higher …, priority 2017, dated 2022).
# System: Her2-positive breast cancer cell line SK-BR-3
# Conditions: SK-BR-3, comparison with most potent mixture; read-out: EC50 of previously reported conjugate; cited from earlier work
substance,measurement,value
Herceptin-MMAF conjugate,EC50,900 ± 200 pM
